This is an account of results in patent EP4831175A1, “COMPOUND AND SALT THEREOF, USE IN PREPARATION OF DRUG FOR TREATING CANCER AND KINASE INHIBITOR, AND DRUG FOR TREATING CANCER” (dated 2026).

The test system of data set [1] is human acute monocytic leukemia cell strain MV4-11 (expressing FLT3/ITD mutant gene). Nature of the data set: CCK-8 cancer cell proliferation assay. The note with it: read-out: MV-411 IC50; incubated for 72 hours, CCK-8, absorbance at 450 nm. As for the experimental part:
(§1) The inhibitory effect on cancer cell proliferation was assessed by measuring the effect of D18 and deuterated series drugs on cancer cell proliferation. Human acute monocytic leukemia cell strain MV4-11 (expressing FLT3/ITD mutant gene) and human acute myeloid leukemia cell strain MOLM-13 (expressing FLT3/ITD mutant gene and wild-type FLT3 gene) were selected. Different concentrations of the above compounds (25 nM, 50 nM, 100 nM, 200 nM, 400 nM in DMSO) were added to the above cells and incubated for 72 hours. The Cell Counting Kit-8 (CCK-8) reagent was used to detect the absorbance at 450 nm using a microplate reader to obtain OD values, and IC50 was further calculated. The experimental results are shown. Table 1 IC50 values of compounds against MOLM-13 and MV4-11 cells

Data set [2] deals with human acute myeloid leukemia cell strain MOLM-13 (expressing FLT3/ITD mutant gene and wild-type FLT3 gene). As to the kind of experiment: CCK-8 cancer cell proliferation assay. The note with it: read-out: MOLM-13 IC50; incubated for 72 hours, CCK-8, absorbance at 450 nm. The protocol:
as §1

The subject of data set [3] is MOLM-13 cells. As to the kind of experiment: Cell cycle distribution by PI staining and flow cytometry. Conditions: 100 nM, 200 nM, 300 nM, 400 nM; 24 hours of treatment; FIG. 1. As for the experimental part:
(§2) The effects of D18 and D18-D6 on the cell cycle distribution of human acute monocytic leukemia cell strain MV4-11 and acute myeloid leukemia cell strain MOLM-13 were tested. The two compounds at different concentrations (100 nM, 200 nM, 300 nM, 400 nM in DMSO) were applied to acute myeloid leukemia cell MV4-11 and MOLM-13 cell strain carrying the FLT3/ITD mutation gene. After 24 hours of treatment, cells were collected, washed twice with 1X PBS buffer solution, fixed with 75% ethanol at -20°C for 24 hours, and washed twice again with 1X PBS buffer. 0.5 mL 1X PBS buffer and 0.5 mL PI staining solution (purchased from BD Bioscience, USA) were added to the cells, and the cells were placed in the dark at 37°C for 15 minutes for staining. Cell cycle distribution was detected using a flow cytometer (BD FACS Calibur). Data were analyzed using FlowJo software (Ashland, OR).

For a further data set, the system named is MV4-11 cells. The data set is described as above. Conditions: 100 nM, 200 nM, 300 nM, 400 nM; 24 hours of treatment; FIG. 2. The protocol:
as §2

Data set [4] is described as follows: Pharmacokinetic properties in rats after intravenous and oral administration. The note with it: for CLz / Cmax / MRT(0-∞) / T1/2 / Tmax / Vz / F / AUC(0-1) / AUC(0-∝) / MRT(0-∝): mean. The text has this: The present invention also evaluated the pharmacokinetic (PK) properties of D18 and D18-D6 in rats following intravenous and oral administration. […] Table 2 Pharmacokinetic properties of D18

Data set [5] has as its system MOLM-13 cells carrying the FLT3/ITD mutation gene. As to the kind of experiment: Soft agar colony formation assay. Conditions: 2.5 nM, 5 nM, 10 nM, 20 nM, 15 days, FIG. 3; for size of clones formed by MOLM-13 cells: when the drug dosage was increased. The protocol: (§3) The proliferation ability of MOLM-13 and MV-4-11 cells carrying the FLT3/ITD mutation gene was assessed by soft agar colony formation assay. The two compounds at different concentrations (2.5 nM, 5 nM, 10 nM, 20 nM in DMSO) were applied to MOLM-13 and MV-4-11 cell strains carrying the FLT3/ITD mutation gene. The time required for sufficient colony formation was typically 15 days, with medium changed twice a week.

Data set [6] deals with MV-4-11 cells carrying the FLT3/ITD mutation gene. Nature of the data set: Soft agar colony formation assay. The note with it: 2.5 nM, 5 nM, 10 nM, 20 nM, 15 days, FIG. 3; for size of clones formed by MV4-11 cells: when the drug dosage was increased. As for the experimental part: as §3
The subject of data set [7] is MOLM-13 cells. Nature of the data set: Nude mouse subcutaneous tumor-bearing model. Conditions: 50 mg/kg daily oral gavage, 2 to 3 weeks; FIG. 4. As for the experimental part:
To assess the tumor inhibitory effect in vivo, a nude mouse subcutaneous tumor-bearing model was introduced. More than 30 five-week-old mice (Balb/c-nu male mice, purchased from Hangzhou Ziyuan Experimental Animal Technology Co., Ltd.) were subcutaneously inoculated with MOLM-13 cells at 1×10^7 cells per mouse. The body weight changes and tumor volume (tumor volume = tumor length × tumor width^2 / 2) of the mice were recorded daily. After 10 days, when the mouse tumor volume reached 200-400 mm^3, the mice were randomly divided into 3 groups: vehicle group, D18 50 mg/kg dose group, and D18-D6 50 mg/kg dose group, with 6-10 mice per group. The following treatments were administered: Group 1 received daily oral gavage of vehicle (a liquid mixture formulation of 5% DMSO, 40% PEG-400, and 55% physiological saline); Group 2 received daily oral gavage of D18 liquid mixture formulation at 50 mg/kg; Group 3 received daily oral gavage of D18-D6 liquid mixture formulation at 50 mg/kg. The day of first administration was recorded as day 0, and administration was continued daily for 2 to 3 weeks of observation.

As usually defined, the IC50 is the concentration needed to halve the response being measured. For the compound `[2H]c1nc(N)c2c(-c3ccc(Oc4c([2H])c([2H])c([2H])c([2H])c4[2H])cc3)nn([C@@H]3CCCN(C(=O)C([2H])([2H])N(C)C([2H])([2H])[2H])C3)c2n1`, the values for the IC50 in data set [1] and in data set [2] were 1250 nM and 1450 nM, respectively.

With `[2H]c1nc(N)c2c(-c3ccc(Oc4c([2H])c([2H])c([2H])c([2H])c4[2H])cc3)nn([C@@H]3CCCN(C(=O)C([2H])([2H])N(C)C)C3)c2n1`, the IC50 in data set [1] amounted to 1250 nM; in data set [2] it was 1340 nM.

Take `[2H]c1nc(N)c2c(-c3ccc(Oc4c([2H])c([2H])c([2H])c([2H])c4[2H])cc3)nn([C@@H]3CCCN(C(=O)C([2H])([2H])N(C([2H])([2H])[2H])C([2H])([2H])[2H])C3)c2n1`: the IC50 turned out to be 1450 nM in data set [1] and 1230 nM in data set [2].

As for `[2H]C([2H])([2H])N(C)C([2H])([2H])C(=O)N1CCC[C@@H](n2nc(-c3ccc(Oc4ccccc4)cc3)c3c(N)ncnc32)C1`, the IC50 amounted to 451 nM in data set [1] and 560 nM in data set [2].

As for `[2H]C([2H])([2H])N(C([2H])([2H])[2H])C([2H])([2H])C(=O)N1CCC[C@@H](n2nc(-c3ccc(Oc4ccccc4)cc3)c3c(N)ncnc32)C1`, the 50% inhibitory concentration (IC50) in data set [1] came to 530 nM; in data set [2], 570 nM.

Turning to `[2H]C([2H])([2H])N(C)CC(=O)N1CCC[C@@H](n2nc(-c3ccc(Oc4ccccc4)cc3)c3c(N)ncnc32)C1`, the 50% inhibitory concentration (IC50) is 42 nM in data set [1] and 48 nM in data set [2].

In general, half-life refers to how long it takes for the measured level to halve. Lower therefore signals rapid decline. One may read the Cmax as the peak of the concentration-time curve. For orientation: Tmax means the time at which the peak concentration occurs. For `[2H]C([2H])([2H])N(CC(=O)N1CCC[C@@H](n2nc(-c3ccc(Oc4ccccc4)cc3)c3c(N)ncnc32)C1)C([2H])([2H])[2H]`, the “cell cycle of MOLM-13 cells” value with MOLM-13 cells [3] is “arrested in the G0-G1 phase in a dose-dependent manner”. In addition, in the data set with MV4-11 cells, the “cell cycle of MV4-11 cells” value was “arrested in the G0-G1 phase in a dose-dependent manner”. In data set [4], the bioavailability result is on record as “approximately 42.51%”. Besides, in data set [4] (iv), the half-life entry was “approximately 1.9 h”. Moreover, in data set [4] (iv(1mg/kg)), the CLz is 33.7 mL/min/kg, the Cmax amounted to 422.341 ng/mL, the “MRT(0-∞)” value was 2.393 h and the T1/2 worked out at 1.898 h. In data set [4] (iv(1mg/kg)), the Tmax was 0.136 h and the Vz turned out to be 5.661 L/kg. Also, in data set [4] (po), the half-life is on record as 4.3 h. Besides, in data set [4] (po(10mg/kg), Table 3), the CLz is 83.28 mL/min/kg, the Cmax came out at 184.886 ng/mL, the F came to 42.51% and the “MRT(0-∞)” value is 5.957 h. Further, in data set [4] (po(10mg/kg), Table 3), the T1/2 is recorded as 4.333 h, the Tmax is 2.583 h and the Vz was 30.65 L/kg. The “size of clones formed by MOLM-13 cells” value in data set [5] is “significantly reduced in size”. For the same compound, the number of colonies entry in data set [5] (MOLM-13) was “markedly reduced”. The “size of clones formed by MV4-11 cells” value in data set [6] is “significantly reduced in size”. Further, in data set [6] (MV4-11), the number of colonies result is “markedly reduced”. In the data set on MOLM-13 cells [7], the “increase in mouse tumor volume” value was “hardly grew” and the mouse tumor growth result is listed as “strongly inhibited”. Besides, in data set [1], the IC50 is 27 nM. In addition, in data set [2], the IC50 was determined as 31 nM.

Regarding `[2H]c1c([2H])c([2H])c(Oc2ccc(-c3nn([C@@H]4CCCN(C(=O)CN(C)C)C4)c4ncnc(N)c34)cc2)c([2H])c1[2H]`, the IC50 amounted to 490 nM in data set [1] and 450 nM in data set [2].

In the case of `[2H]c1c([2H])c([2H])c(Oc2ccc(-c3nn([C@@H]4CCCN(C(=O)CN(C)C([2H])([2H])[2H])C4)c4ncnc(N)c34)cc2)c([2H])c1[2H]`, the IC50 was 560 nM in data set [1] and 450 nM in data set [2].

`[2H]c1c([2H])c([2H])c(Oc2ccc(-c3nn([C@@H]4CCCN(C(=O)C([2H])([2H])N(C)C([2H])([2H])[2H])C4)c4ncnc(N)c34)cc2)c([2H])c1[2H]`: the IC50 in data set [1] turned out to be 730 nM; in data set [2] it was 850 nM.

`CN(C)CC(=O)N1CCC[C@@H](n2nc(-c3ccc(Oc4ccccc4)cc3)c3c(N)ncnc32)C1`: the “cell cycle of MOLM-13 cells” value in the data set with MOLM-13 cells [3] is recorded as “arrested in the G0-G1 phase in a dose-dependent manner”. Moreover, in the data set with MV4-11 cells, the “cell cycle of MV4-11 cells” value is recorded as “arrested in the G0-G1 phase in a dose-dependent manner”. Also, in data set [4], the bioavailability result is “approximately 35.93%”. Moreover, in data set [4] (iv), the half-life entry is listed as “approximately 1.5 h”. For the same compound, in data set [4] (iv(tmg/kg)), the “AUC(0-1)” value was found to be 684.615 ng·h/mL, the “AUC(0-∝)” value worked out at 695.331 ng·h/mL, the CLz stood at 24.8 mL/min/kg and the Cmax came to 767.665 ng/mL. Besides, in data set [4] (iv(tmg/kg)), the “MRT(0-∝)” value is 1.49 h, the T1/2 turned out to be 1.537 h, the Tmax is reported as 0.017 h and the Vz turned out to be 3.304 L/kg. For the same compound, the half-life in data set [4] (po) came to 3.6 h. Further, in data set [4] (po(10mg/kg), Table 2), the “AUC(0-1)” value came out at 2465.816 ng·h/mL, the “AUC(0-∝)” value worked out at 2498.188 ng·h/mL, the CLz was found to be 68.78 mL/min/kg and the Cmax amounted to 304.121 ng/mL. In data set [4] (po(10mg/kg), Table 2), the F turned out to be 35.93%, the “MRT(0-∝)” value is 5.646 h, the T1/2 is 3.646 h and the Tmax was found to be 3 h. Further, the Vz in data set [4] (po(10mg/kg), Table 2) is 21.50 L/kg. The “size of clones formed by MOLM-13 cells” value in data set [5] was “significantly reduced in size”. Besides, the “size of clones formed by MV4-11 cells” value in data set [6] was “significantly reduced in size”. Moreover, in the data set on MOLM-13 cells [7], the “increase in mouse tumor volume” value was “significantly slowed” and the mouse tumor growth entry was “significantly inhibited”. Besides, in data set [1], the IC50 was 62 nM. Also, the IC50 in data set [2] amounted to 81 nM.

As for `[2H]C([2H])(C(=O)N1CCC[C@@H](n2nc(-c3ccc(Oc4ccccc4)cc3)c3c(N)ncnc32)C1)N(C)C`, the IC50 in data set [1] worked out at 610 nM; in data set [2], 520 nM.
